For 1 compound, IC50 results are on record in ChEMBL document CHEMBL4834416, “The Discovery of Novel ACA Derivatives as Specific TRPM2 Inhibitors that Reduce Ischemic Injury Both In Vitro and In Vivo” (J Med Chem, 2021).

Amino acid sequences for entries named in this document (tags omitted).
UniProt O94759, whole entry: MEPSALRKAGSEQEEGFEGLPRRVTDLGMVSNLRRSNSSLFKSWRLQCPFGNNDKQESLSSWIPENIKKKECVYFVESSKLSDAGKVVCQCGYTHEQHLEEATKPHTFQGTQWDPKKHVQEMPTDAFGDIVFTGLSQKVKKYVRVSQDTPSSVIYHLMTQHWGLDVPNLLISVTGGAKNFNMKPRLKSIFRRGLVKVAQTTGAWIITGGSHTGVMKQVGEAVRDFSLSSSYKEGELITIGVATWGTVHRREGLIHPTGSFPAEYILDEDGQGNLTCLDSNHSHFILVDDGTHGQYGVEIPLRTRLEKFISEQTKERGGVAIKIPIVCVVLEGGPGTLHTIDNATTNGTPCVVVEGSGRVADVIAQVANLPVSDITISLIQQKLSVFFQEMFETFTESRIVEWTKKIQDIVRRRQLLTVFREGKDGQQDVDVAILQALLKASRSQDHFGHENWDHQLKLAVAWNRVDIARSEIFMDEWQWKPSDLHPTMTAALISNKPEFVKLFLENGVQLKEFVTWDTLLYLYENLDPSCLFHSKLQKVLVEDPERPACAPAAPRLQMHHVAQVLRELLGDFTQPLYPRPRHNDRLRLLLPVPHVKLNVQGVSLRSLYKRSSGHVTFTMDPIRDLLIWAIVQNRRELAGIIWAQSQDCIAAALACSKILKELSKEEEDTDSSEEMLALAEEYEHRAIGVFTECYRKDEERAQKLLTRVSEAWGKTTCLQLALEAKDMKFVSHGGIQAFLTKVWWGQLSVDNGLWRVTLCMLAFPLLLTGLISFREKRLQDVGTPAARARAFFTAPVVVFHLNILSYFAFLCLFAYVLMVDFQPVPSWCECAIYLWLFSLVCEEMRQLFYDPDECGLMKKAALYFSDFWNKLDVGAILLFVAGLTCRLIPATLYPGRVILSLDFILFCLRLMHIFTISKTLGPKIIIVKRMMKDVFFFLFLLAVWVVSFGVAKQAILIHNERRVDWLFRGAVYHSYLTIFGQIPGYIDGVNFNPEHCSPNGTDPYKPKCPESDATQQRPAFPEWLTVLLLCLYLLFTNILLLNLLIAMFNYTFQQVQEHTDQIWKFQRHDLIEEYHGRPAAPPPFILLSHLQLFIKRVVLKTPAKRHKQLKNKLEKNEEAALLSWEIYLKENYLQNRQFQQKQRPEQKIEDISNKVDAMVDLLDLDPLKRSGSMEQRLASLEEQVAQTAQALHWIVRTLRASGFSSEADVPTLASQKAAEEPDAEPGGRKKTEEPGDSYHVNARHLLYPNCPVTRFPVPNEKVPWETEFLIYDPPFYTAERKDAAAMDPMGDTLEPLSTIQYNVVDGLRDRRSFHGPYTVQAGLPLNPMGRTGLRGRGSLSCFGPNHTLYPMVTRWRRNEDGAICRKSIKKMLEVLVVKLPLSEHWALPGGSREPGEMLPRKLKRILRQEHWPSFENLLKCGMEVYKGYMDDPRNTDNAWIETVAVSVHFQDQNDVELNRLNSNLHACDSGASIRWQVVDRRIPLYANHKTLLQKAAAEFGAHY

This experiment has as its target Transient receptor potential cation channel subfamily M member 2 (Homo sapiens, UniProt O94759). The experiment is described as follows: Inhibition of human TRPM2 expressed in HEK293T cells assessed as blocked of ADPR-activated current by whole cell patch clamp electrophysiology. The format is cell-based.

As to `NCCOB(c1ccccc1)c1ccccc1`, the IC50 is 1200 nM.
